In patent US7829114B2, “Capsules containing aqueous fill compositions stabilized with derivatized cyclodextrin” (CyDex Pharmaceuticals, Inc., priority 2002, dated 2010):

Experiment: Water solubility at saturation
Type: physicochemical

Dimethylcyclodextrin [DMCD, reference compound]
water solubility at saturation: 43 % w/w | maximum achievable concentration (in water): about 42 % wt.
